Experimental data taken from publication PMC9340770 (2022).
Read-outs that look alike come from different tables or passages of the source.

Assays:
[1] = molecular target: T1, recombinant human SOS1 polypeptide (Homo sapiens, UniProt Q07889); conditions: read-out: SOS1 Binding Ki
T1 sequence (Q07889 560-1049): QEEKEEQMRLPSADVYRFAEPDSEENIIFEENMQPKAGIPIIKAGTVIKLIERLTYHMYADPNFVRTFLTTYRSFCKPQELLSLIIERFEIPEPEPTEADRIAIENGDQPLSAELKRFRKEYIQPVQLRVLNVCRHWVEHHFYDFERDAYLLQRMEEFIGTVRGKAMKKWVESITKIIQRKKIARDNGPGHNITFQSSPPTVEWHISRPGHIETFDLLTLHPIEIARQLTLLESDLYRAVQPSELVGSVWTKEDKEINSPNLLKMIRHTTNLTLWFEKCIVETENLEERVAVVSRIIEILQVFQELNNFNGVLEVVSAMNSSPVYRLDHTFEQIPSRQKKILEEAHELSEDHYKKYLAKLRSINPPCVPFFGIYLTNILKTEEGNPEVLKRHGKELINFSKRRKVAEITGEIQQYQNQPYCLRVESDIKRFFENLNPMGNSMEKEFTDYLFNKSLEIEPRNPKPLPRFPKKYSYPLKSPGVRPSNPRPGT

[2] = test system: phosphorylated ERK1/2 (pERK) in MKN1 cells; test: cells; type: cell-based; conditions: Homo sapiens, MKN-1, read-out: MKN1 Cell IC50

SMILES	Ki ([1]; HTRF displacement assay)	IC50 [2]	Ki [1]
Cc1c([C@@H](C)Nc2nnc(C)c3ccc(N4CCN(C)C(=O)C4)cc23)cccc1C(F)(F)F [Compound 17]	0.43 nM	74 nM	
Cc1c([C@@H](C)Nc2nnc(C)c3cnc(N4CCOCC4)cc23)cccc1C(F)(F)F [Compound 24]	0.91 nM		
Cc1c([C@@H](C)Nc2nnc(N(C)C)c3ccc(N4CCNCC4)cc23)cccc1C(F)(F)F [Compound 20]	1.1 nM	176 nM	
Cc1c(C#N)cccc1[C@@H](C)Nc1nnc(C)c2cc(C(F)(F)F)c(N3CCOCC3)cc12 [Compound 38]		779 nM	95 nM
